Results taken from EP4810518A2, “ANTIBODY THAT BINDS ERBB-2 AND ERBB-3” (Merus B.V., priority 2017, dated 2018).
Where “and” joins values, the source holds several entries; their conditions need not be identical. Equal entries are not always repeated.

Test system: intracranial ST1360B PDX tumors
Details: individual mouse, scale 0-4 (0 no, 4 massive brain edema)

Substance: T-DM1
- Brain edema score day 3 (day 3 post initiation of therapy): 1 and 2
- Brain edema score day 7 (day 7 post initiation of therapy): 2 and 1 and 3
- Brain edema score day 10 (day 10 post initiation of therapy): 2 and 0 and 3 and 1
- Brain edema score day 14 (day 14 post initiation of therapy): 3 and 2
- Brain edema score day 21 (day 21 post initiation of therapy): 4 and 2
- Brain edema score day 28 (day 28 post initiation of therapy): 4 and 3
- Brain edema final score (last MR scan of each mouse): 2 and 3 and 4
